Source: article doi:10.1101/808618v2

Tests used:
Assay in all cases: purified protein
NC(=O)CC[C@H](N)C(=O)O = settings: pH 8.5, 25 °C, 20 mM MgCl2, XMP 0.15 mM, ATP 2 mM fixed
[1] = tested on: Nc1ncnc2c1ncn2[C@@H]1O[C@H](COP(=O)(O)OP(=O)(O)OP(=O)(O)O)[C@@H](O)[C@H]1O; settings: pH 8.5, 25 °C, 20 mM MgCl2, XMP 0.15 mM
[2] = tested on: O=c1[nH]c(=O)c2ncn([C@@H]3O[C@H](COP(=O)(O)O)[C@@H](O)[C@H]3O)c2[nH]1; settings: pH 8.5, 25 °C
[3] = 20 mM MgCl2, ATP 2 mM, Gln 40 mM fixed
[4] = 20 mM MgCl2, ATP 2 mM, Gln 15 mM fixed
[5] = 20 mM MgCl2, ATP 5 mM, Gln 5 mM fixed

Work on “PfGMPS (Plasmodium falciparum 3D7; K24L)” yielded a Km (NC(=O)CC[C@H](N)C(=O)O) of 1750 ± 60 µM, a kcat (NC(=O)CC[C@H](N)C(=O)O) of 0.296 ± 0.007 s⁻¹ and a Km ([1]; Gln 40 mM fixed) of 67 ± 3 µM. For the same substance, the kcat ([1]; Gln 40 mM fixed) was 0.340 ± 0.004 s⁻¹, the Km [2, 3] was 20.6 ± 1 µM and the kcat [2, 3] was 0.327 ± 0.005 s⁻¹.

Substance “PfGMPS (Plasmodium falciparum 3D7; D413A)” has a Km [2, 4] of 20 ± 2.9 µM and a kcat [2, 4] of 0.532 ± 0.011 s⁻¹.

Substance “PfGMPS (Plasmodium falciparum 3D7; K415L)” has a Km ([1]; Gln 5 mM fixed) of 500 ± 11 µM, a kcat ([1]; Gln 5 mM fixed) of 0.733 ± 0.018 s⁻¹ and a Km [2, 5] of 14.4 ± 1.5 µM. For the same substance, the kcat [2, 5] was 0.744 ± 0.059 s⁻¹.

“PfGMPS (Plasmodium falciparum 3D7; D412A)” gave a Km (NC(=O)CC[C@H](N)C(=O)O) of 2610 ± 220 µM and a kcat (NC(=O)CC[C@H](N)C(=O)O) of 0.657 ± 0.004 s⁻¹.
